Screen for blockers of NLRP3-driven cell death, PubChem AID 2061109 (Seoul National University).
Cells: mouse bone marrow macrophages; stimulus: LPS priming, then nigericin; dose: 5 µM; read-out: propidium iodide uptake by live imaging.
Inhibition in %: 0 = stimulated control, 100 = untreated cells; values below 0 were filed as 0. * marks the depositor's active call (above 70%). Part of the library is listed.

compound	inhibition [%]
CCO[C@@H]1OC(=O)C[C@@H]1NC(=O)[C@@H]1CCCN1C(=O)[C@@H](NC(=O)c1ccc(N)c(Cl)c1)C(C)(C)C	100.0*
CC(=O)OCC1=CO[C@@H](OC(=O)CC(C)C)[C@H]2C1=C[C@H](OC(=O)CC(C)(C)OC(C)=O)[C@]21CO1	99.7*
Cc1ccc(S(=O)(=O)c2ccc([N+](=O)[O-])o2)cc1	99.1*
CC1=C(CO)C(=O)O[C@@H]([C@@H](C)[C@H]2CC[C@H]3[C@@H]4C[C@H]5O[C@]56[C@@H](O)C=CC(=O)[C@]6(C)[C@H]4CC[C@]23C)C1	95.4*
CC1(C)CC[C@]2(C(=O)n3cnc(-c4cccnc4)c3)CC[C@]3(C)[C@H](C(=O)C=C4[C@@]5(C)C=C(C#N)C(=O)C(C)(C)[C@@H]5CC[C@]43C)[C@@H]2C1	94.7*
COc1cc(C=C(C(=O)/C=C/c2ccc(OC)c(OC)c2)C(=O)/C=C/c2ccc(OC)c(OC)c2)ccc1O	94.5*
O=C(C1CC1)N1CCN(Cn2sc3ccccc3c2=O)CC1	91.5*
CCS(=O)(=O)c1ncc(Cl)c(C(=O)N(Cc2ccc(Cl)cc2)Cc2ccco2)n1	87.5*
CC(C)=CCC1=CC(=O)c2ccccc2C1=O	86.8*
C[C@H]1CC[C@]2(NC1)O[C@H]1C[C@H]3[C@@H]4CC[C@H]5C[C@@H](O)CC[C@]5(C)[C@H]4CC[C@]3(C)[C@H]1[C@@H]2C.Cl	86.1*
O=C(NC(=O)c1c(F)cccc1F)Nc1ccc(Cl)cc1	85.9*
Cc1csc(-c2nnc(Nc3ccc(Oc4ncccc4-c4ccnc(N)n4)cc3)c3ccccc23)c1	84.9*
Cc1cc(Nc2ncc3c(n2)N(C)C(=O)N(c2cc(NC(=O)c4cccc(C(F)(F)F)c4)ccc2C)C3)n(C)n1	83.6*
Cc1cc(C(=O)NNCc2ccccc2)no1	83.6*
CCn1c(=O)c(-c2ccc(Cl)cc2Cl)cc2cnc(Nc3ccc(N4CCNCC4)c(F)c3)nc21	83.3*
OCc1ccc(-c2nn(Cc3ccccc3)c3ccccc23)o1	83.2*
C[C@]12N[C@H](Cc3ccccc31)c1ccccc12	83.1*
O=C(CNC(=O)c1cccc2ccccc12)Nc1ccccc1Oc1ccccc1	82.7*
NC(=O)c1cnc(-c2ccc(C3(N)CCC3)cc2)c(-c2ccccc2)c1	82.6*
Cc1cc(=O)n(C)c2cc(N3C(=O)CC[C@H](NS(=O)(=O)CC(C)C)[C@H]3c3ccc(Cl)cc3)ccc12	82.4*
CC(C)S(=O)(=O)Nc1ccc(F)c(C(=O)c2c[nH]c3ncc(-c4cccnc4)cc23)c1F	82.1*
Cc1ccc(-c2nnc(NC(=O)c3ccccc3)s2)cc1	82.0*
NC(=O)[C@@H]1CC[C@@H]2CN1C(=O)N2OS(=O)(=O)[O-].[Na+]	81.7*
O=S(=O)(Nc1ccc(-c2nc(OC3CCC(O)CC3)c3cn[nH]c3n2)cc1)c1cc(Cl)ccc1F	81.3*
CC(C)n1c(=O)n(C)c2cnc3cc(F)c(-c4ccc(OCCCN5CCCCC5)nc4)cc3c21	81.2*
CC[C@H](C)[C@@H]([C@@H](CC(=O)N1CCC[C@H]1[C@H](OC)[C@@H](C)C(=O)N[C@@H](Cc1ccccc1)c1nccs1)OC)N(C)C(=O)[C@@H](NC(=O)[C@@H](NC)C(C)C)C(C)C	81.1*
CS(=O)(=O)O.CS(=O)(=O)O.Cc1ccc(C(=O)Nc2ccc(CN3CCN(C)CC3)c(C(F)(F)F)c2)cc1C#Cc1cnc2[nH]ncc2c1	80.7*
CC(C)(C)[C@@H]1NC(=O)O[C@@H]2CCC[C@H]2OCC=CC(F)(F)c2nc3ccccc3nc2O[C@@H]2C[C@@H](C(=O)N[C@]3(C(=O)NS(=O)(=O)C4(C)CC4)C[C@H]3C(F)F)N(C2)C1=O	80.3*
O.O=C([O-])CC(O)(CC(=O)[O-])C(=O)[O-].[K+].[K+].[K+]	80.2*
COc1cccc(Cn2c(=O)oc3cc(-c4cnc5[nH]ccc5c4)ccc32)c1	80.2*
O=C(NCCCN1CCOCC1)c1ccc(Cl)cc1	80.0*
Cc1ccc(C(=O)Nc2cccc(C(F)(F)F)c2)cc1-c1ccc2c(-c3cnn(C4CC4)c3)n[nH]c2c1	79.9*
COc1cc([C@H]2OC[C@H]3[C@@H]2CO[C@@H]3c2cc(OC)c(O[C@@H]3O[C@H](CO)[C@@H](O)[C@H](O)[C@H]3O)c(OC)c2)ccc1O[C@@H]1O[C@H](CO)[C@@H](O)[C@H](O)[C@H]1O	79.9*
O=C(Nc1ccccc1)c1ccc(Nc2nnc(-c3ccc(O)cc3)c3ccccc23)cc1	79.8*
Cc1cc(-c2ccccc2)nnc1C(=O)N1CCN(c2ncccn2)CC1	79.8*
C[C@@H]1CCC[C@H](C)N1NC(=O)c1ccc(Cl)c(S(N)(=O)=O)c1	79.8*
Cc1c(C(C)C)c(=O)n(-c2ccccc2)n1C	79.8*
NS(=O)(=O)c1ccc(Cc2c(-c3cccc(-c4ccccc4)c3)nn(-c3nc(C(=O)O)cs3)c2CC2CC2)cc1	79.6*
Cl[TeH]1(Cl)(Cl)OCCO1.N	79.6*
c1ccc(Cn2c(Sc3ncnc4c3sc3ncccc34)nnc2-c2ccncc2)cc1	79.5*
Cc1ncc(CNC(=O)N(CCCl)N=O)c(N)n1.Cl	79.4*
Cn1cc(-c2ccc(CNc3cc(-c4cnc5cc(OCCCN6CCCC6)ccn45)ncn3)cc2)cn1	79.0*
CC1(C)CC[C@]2(C(=O)O)CC[C@]3(C)C(=CC[C@@H]4[C@@]5(C)CC[C@H](O[C@@H]6O[C@H](C(=O)O)[C@@H](O)[C@H](O)[C@H]6O[C@@H]6O[C@H](CO)[C@@H](O)[C@H](O)[C@H]6O)C(C)(C)[C@@H]5CC[C@]43C)[C@@H]2C1	78.9*
O=c1[nH][nH]c2cc(F)ccc12	78.7*
CS[C@@]1(C(=O)Nc2ccc3[nH]nc(-c4ccc(OC(C)C)nc4)c3c2)CCN(CC(=O)N2CC=C(c3ccc(-c4ncn(C)n4)cc3)CC2)C1	78.7*
COc1nccnc1NS(=O)(=O)c1cccc(Cl)c1Cl	78.6*
COC(=O)c1ccccc1C(=O)c1ccc(OCCN2CCCCC2)cc1.Cl	78.4*
Cn1nc(C(C)(C)C)cc1C(=O)N[C@@H](Cc1cccc(Cl)c1)C(=O)NCC#N	78.4*
CC(C(=O)O)c1ccc(C(=O)c2cccs2)cc1	78.3*
COc1nn(-c2ccc(NC(=O)OCc3ccccc3)c(C)c2)c(=O)o1	78.2*
CN(C)CCN(Cc1ccc(-c2ccc(CNCCc3ccccc3)cc2)cc1)C(=O)CCC1CCCC1.Cl.Cl	78.0*
CC#CC(=O)N[C@H]1CCCN(c2c(F)cc(C(N)=O)c3[nH]c(C)c(C)c23)C1	77.5*
CC1(C)CCN(CCOc2ccc3[nH]ccc3c2)c2ccc(-c3cccnc3)cc21	77.4*
Oc1ccc(-c2c(-c3ccccc3)nn3c(C(F)(F)F)cc(C(F)(F)F)nc23)cc1	77.3*
CS(=O)(=O)O.CS(=O)(=O)O.Cc1nn(-c2ccnc(Nc3ccc4c(c3)c(C(=O)C3CC3)cn4C)n2)cc1CN1C[C@H](O)CO1	77.1*
C[C@@H](C(=O)Nc1ccc(Cl)cc1)C1CCC(c2ccnc3ccc(F)cc23)CC1	77.1*
COc1ncc(-c2ccc3ncc(Cl)c(=O)n3c2)cc1NS(=O)(=O)c1ccc(F)cc1F	76.9*
CCOC(=O)CCNC(=S)NCCCC[C@H](NC(=O)OCc1ccccc1)C(=O)N[C@@H](Cc1c[nH]c2ccccc12)C(=O)NC(C)C	76.8*
O=C(O)c1cc(=O)c2ccc(Cl)cc2[nH]1	76.7*
Cc1c(F)cccc1NC(=O)Nc1ccc(Cl)c(S(=O)(=O)[C@H]2CCCNC2)c1O	76.6*
COc1ccccc1OCCNCC(O)c1ccc(C)c(S(N)(=O)=O)c1	76.5*
O=C(Nc1ccc(I)cc1)c1ccc([N+](=O)[O-])o1	76.5*
CC(C)(C)COc1ccc(-n2cc(C(=O)O)cn2)cc1C#N	76.0*
NC1(C(=O)O)CCCC1	75.9*
CC(=O)Nc1cc(Oc2ccc3c(c2)CCN3C(=O)Nc2ccc(CN3CCN(C)CC3)c(C(F)(F)F)c2)ncn1	75.7*
COc1cc2nccc(Nc3cccc(Oc4ccccc4)c3)c2cc1OC	75.5*
CC[C@H]1OC(=O)[C@H](C)[C@@H](O[C@H]2C[C@@](C)(OC)[C@@H](O)[C@H](C)O2)[C@H](C)[C@@H](O[C@@H]2O[C@H](C)C[C@H](N(C)C)[C@H]2O)[C@](C)(O)C[C@@H](C)CN(C)[C@H](C)[C@@H](O)[C@]1(C)O	75.4*

Again, the opening 5 compounds:

compound | inhibition [%]
CCO[C@@H]1OC(=O)C[C@@H]1NC(=O)[C@@H]1CCCN1C(=O)[C@@H](NC(=O)c1ccc(N)c(Cl)c1)C(C)(C)C | 100.0*
CC(=O)OCC1=CO[C@@H](OC(=O)CC(C)C)[C@H]2C1=C[C@H](OC(=O)CC(C)(C)OC(C)=O)[C@]21CO1 | 99.7*
Cc1ccc(S(=O)(=O)c2ccc([N+](=O)[O-])o2)cc1 | 99.1*
CC1=C(CO)C(=O)O[C@@H]([C@@H](C)[C@H]2CC[C@H]3[C@@H]4C[C@H]5O[C@]56[C@@H](O)C=CC(=O)[C@]6(C)[C@H]4CC[C@]23C)C1 | 95.4*
CC1(C)CC[C@]2(C(=O)n3cnc(-c4cccnc4)c3)CC[C@]3(C)[C@H](C(=O)C=C4[C@@]5(C)C=C(C#N)C(=O)C(C)(C)[C@@H]5CC[C@]43C)[C@@H]2C1 | 94.7*